Measurements reported in article PMC11860274, “In Vitro Signaling Properties of Cannabinoid and Orexin Receptors: How Orexin Receptors Influence Cannabinoid Receptor‐Mediated Signaling” (Pharmacology Research & Perspectives, 2025).

Chains of the proteins cited; added tags and fusions are not shown.
UniProt P21554, whole entry: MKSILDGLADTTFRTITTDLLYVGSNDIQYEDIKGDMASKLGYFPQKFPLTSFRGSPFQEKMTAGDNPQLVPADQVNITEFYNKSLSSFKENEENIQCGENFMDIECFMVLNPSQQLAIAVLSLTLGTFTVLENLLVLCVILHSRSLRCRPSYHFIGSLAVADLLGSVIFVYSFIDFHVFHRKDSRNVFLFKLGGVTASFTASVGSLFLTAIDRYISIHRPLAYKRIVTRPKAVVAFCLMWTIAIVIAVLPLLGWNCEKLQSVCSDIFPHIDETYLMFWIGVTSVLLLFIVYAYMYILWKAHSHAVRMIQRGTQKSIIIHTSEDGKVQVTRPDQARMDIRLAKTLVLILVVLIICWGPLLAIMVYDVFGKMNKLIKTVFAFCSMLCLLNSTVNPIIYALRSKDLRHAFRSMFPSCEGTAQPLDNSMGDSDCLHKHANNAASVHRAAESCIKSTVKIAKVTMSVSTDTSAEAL
UniProt P34972, whole entry: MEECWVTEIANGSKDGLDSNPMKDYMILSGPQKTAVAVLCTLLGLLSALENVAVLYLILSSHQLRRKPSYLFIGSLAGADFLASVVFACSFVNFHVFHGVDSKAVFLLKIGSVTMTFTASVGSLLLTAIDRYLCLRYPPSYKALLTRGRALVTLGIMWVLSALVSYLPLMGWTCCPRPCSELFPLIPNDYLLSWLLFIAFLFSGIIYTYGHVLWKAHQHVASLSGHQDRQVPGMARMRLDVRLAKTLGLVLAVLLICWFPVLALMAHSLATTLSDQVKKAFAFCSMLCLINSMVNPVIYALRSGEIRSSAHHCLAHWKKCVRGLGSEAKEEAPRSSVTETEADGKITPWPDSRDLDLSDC

Key:
[1] = molecular target: T1, CB1 (HitHunter cAMP cells) (Homo sapiens, UniProt P21554); experiment: HitHunter cAMP inhibition, enzyme fragment complementation; type: cell-based; details: agonist; no OX plasmid (mock transfection); 10 μM forskolin, 90 min, 37°C; printed pEC50 8.8 ± 0.45; unreliable
T1 construct: gene CNR1; unmodified full receptor stably expressed in CHO-K1 HitHunter cAMP cells (DiscoverX)
Text: HitHunter cAMP inhibition, enzyme fragment complementation on CB1 (HitHunter cAMP cells)

[2] = molecular target: T2, CB2 (HitHunter cAMP cells) (Homo sapiens, UniProt P34972); experiment: as above; type: cell-based; details: agonist; no OX plasmid (mock transfection); 10 μM forskolin, 90 min, 37°C; printed pEC50 8.0 ± 0.62; Hill slope constrained to 1; unreliable
T2 construct: gene CNR2; unmodified full receptor stably expressed in CHO-K1 HitHunter cAMP cells (DiscoverX)
Text: HitHunter cAMP inhibition, enzyme fragment complementation on CB2 (HitHunter cAMP cells)

## (−)‐cis‐3‐[2‐Hydroxy‐4‐(1,1‐dimethylheptyl)phenyl]‐trans‐4‐(3‐hydroxypropyl)cyclohexanol [CP55,940]
[1]
  cAMP / pEC50 (nM): 1.5 nM
[2]
  cAMP / pEC50 (nM): 10 nM
